Biological target: T1, Porcine pancreatic α-amylase (Sus scrofa, UniProt P00690)
T1 sequence (P00690 16-511): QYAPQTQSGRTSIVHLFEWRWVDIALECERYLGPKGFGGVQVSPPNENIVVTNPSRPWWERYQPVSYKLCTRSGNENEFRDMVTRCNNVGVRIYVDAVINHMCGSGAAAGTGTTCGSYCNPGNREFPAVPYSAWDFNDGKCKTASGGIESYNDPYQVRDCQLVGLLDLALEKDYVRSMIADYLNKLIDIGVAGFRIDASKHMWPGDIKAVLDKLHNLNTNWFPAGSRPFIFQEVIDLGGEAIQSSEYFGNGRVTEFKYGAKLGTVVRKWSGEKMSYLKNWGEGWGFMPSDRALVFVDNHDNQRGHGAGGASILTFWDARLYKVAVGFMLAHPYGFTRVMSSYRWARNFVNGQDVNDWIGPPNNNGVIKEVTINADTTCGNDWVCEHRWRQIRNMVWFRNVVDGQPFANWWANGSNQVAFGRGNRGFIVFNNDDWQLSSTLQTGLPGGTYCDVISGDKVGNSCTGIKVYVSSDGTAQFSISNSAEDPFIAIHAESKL
Experiment: Kinetic parameters of α-amylase inhibition (Lineweaver–Burk, Michaelis–Menten)
Details: for Type Inhibition, α-amylase: Lineweaver–Burk plot; for Vmax: α-amylase

For C[C@H]1O[C@H](O[C@H]2[C@H](O)[C@@H](O)[C@@H](O[C@H]3[C@H](O)[C@@H](O)C(O)O[C@@H]3CO)O[C@@H]2CO)[C@H](O)[C@@H](O)[C@@H]1N[C@H]1C=C(CO)[C@@H](O)[C@H](O)[C@H]1O (some centres unmarked) [AR, acarbose], the “Type Inhibition, α-amylase” value was “Mixed”, the “Type Inhibition, α-amylase” value (listed as acarbose) was “mixed type of inhibition” and the Vmax (inhibitor 3.0 µg/mL) was 0.321 ± 0.009 ^C mM/min. The Vmax (inhibitor 8.0 µg/mL) was 0.241 ± 0.015 ^B mM/min and the Vmax (inhibitor 10.0 µg/mL) was 0.189 ± 0.009 ^A mM/min.

— article PMC9610465, “The Inhibition of α-Glucosidase, α-Amylase and Protein Glycation by Phenolic Extracts of Cotoneaster bullatus, Cotoneaster zabelii, and Cotoneaster integerrimus Leaves and Fruits: Focus on Anti-Hyperglycemic Activity and Kinetic Parameters” (Molecules, 2022)
